Our source for the Kd values is paper PMC5454376 (2017).

Read-outs that look alike come from different tables or passages of the source.

Test in all cases: FP
For assay [1], the target named is T1, Human His-Gαi3 WT (human, UniProt P08754 1-354).
T1 chain: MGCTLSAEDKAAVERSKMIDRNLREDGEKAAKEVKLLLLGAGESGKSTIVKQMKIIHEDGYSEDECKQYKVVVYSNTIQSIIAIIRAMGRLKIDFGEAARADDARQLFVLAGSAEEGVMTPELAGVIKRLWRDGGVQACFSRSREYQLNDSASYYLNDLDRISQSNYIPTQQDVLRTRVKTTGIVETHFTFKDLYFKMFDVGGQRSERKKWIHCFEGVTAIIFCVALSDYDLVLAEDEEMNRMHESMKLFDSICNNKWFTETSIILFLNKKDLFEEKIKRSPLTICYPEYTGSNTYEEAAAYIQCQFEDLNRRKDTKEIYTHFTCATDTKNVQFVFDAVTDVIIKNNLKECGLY

For assay [2], the target named is T2, Full-length human Gαi3, untagged (NMR sample) (human, UniProt P08754 1-354).
T2 chain: T1 chain

For assay [3], the target named is T1, Human His-Gαi3 WT.
For assay [4], the target named is T1, Human His-Gαi3 WT.

B1: Fluorescein-labelled DAPLE peptide (residues 1,662–1,695) (peptide)
peptide: SASPSSEMVTLEEFLEESNRSSPTHDTPSCRDDL
modifications: 5,6-carboxyfluorescein coupled to the resin-bound peptide after chain elongation
As for B1, the Kd (as a rule, the free concentration of one partner at which half of the binding sites on the other are occupied at equilibrium, for simple one-to-one binding) with Human His-Gαi3 WT [1] worked out at 303 nM; in assay [2] it was 370 nM; in the assay with Human His-Gαi3 WT [3], 300 nM; with Human His-Gαi3 WT [4] it was 300 nM.
